# According to US6987093B2 (priority 2001, dated 2006):
# Where two headings read alike, the source gives them in different places.
# What was measured:
# [1] = test system: Enterococcus faecalis 03A1085; test: Murine acute infection (peritonitis) model challenged with Enterococcus faecalis
# [2] = test system: Streptococcus pneumoniae 02J1016; test: Murine lung (pulmonary/pneumonia) infection model challenged with Streptococcus pneumoniae; assay type: in vivo, mouse
# [3] = test system: Haemophilus influenzae 54A1100; test: Murine acute infection (peritonitis) model challenged with Haemophilus influenzae; assay type: in vivo, mouse
# [4] = test system: Streptococcus pyogenes 02C0203; test: Murine acute infection (peritonitis) model challenged with Streptococcus pyogenes; assay type: in vivo, mouse; details: P.O. q.d.
# E. faecalis 03A1085 = test: MIC determination, E. faecalis; assay type: cell-based; details: Enterococcus faecalis, 03A1085, E. faecalis 03A1085
# Experimental: MIC Determinations. Streptococcus pneumoniae, S. pyogenes, E. faecalis, and H. influenzae MICs were determined using the broth microdilution procedure recommended by the NCCLS. Test trays were incubated at 35C without carbon dioxide. For testing of streptococci, the cation-adjusted Mueller-Hinton broth was supplemented with 2–3% lysed horse blood. For testing H. influenzae, freshly prepared Haemophilus Test Medium broth was used.
# Bacterial Strains. • S. pneumoniae 02J1016, serotype 3, originally isolated from blood culture (strain P 4241) (MLS- and penicillin-susceptible). • S. pyogenes 02C0203, ATCC 12384, group A, type 3 (MLS-susceptible). • E. faecalis 03A1085, vancomycin susceptible clinically derived strain. • H. influenzae 54A1100, (43095 ATCC Fulghum strain) non-serotype B strain originally isolated from otitis media (macrolide and penicillin susceptible). • H. influenzae 54A1218, clinically derived non-serotype B strain (macrolide-susceptible, penicillin-resistant, TEM-1 beta-lactamase).
# [5] = oral QD, murine peritonitis model
# [6] = previously tested, standard dosing paradigm (b.i.d. on day 1), s.c.
compound,measurement,setting,value
"CC[C@H]1OC(=O)[C@H](C)[C@@H](O[C@H]2C[C@@](C)(OC)[C@@H](O)[C@H](C)O2)[C@H](C)[C@@H](O[C@@H]2O[C@H](C)C[C@H](N(C)C)[C@H]2O)[C@](C)(O)C[C@@H](C)CN(C)[C@H](C)[C@@H](O)[C@]1(C)O [Azithromycin, 9a-aza-9a-methyl-9-deoxo-9a-homoerythromycin A]",Oral PD50,[1]; Dosing Regimen 1 day,14.8 (10.2–19.5) mg/kg/day
same,Oral PD50,[1]; Dosing Regimen 2 days,42.7 (42.2–43.2) mg/kg/day
same,Oral PD50,[1]; Dosing Regimen 3 days,59.3 (27.5–91.2) mg/kg/day
same,PD50,[1]; Q.D. [2 days],42.7 mg/kg/regimen
same,PD50,[1]; Q.D. [3 days],59.3 mg/kg/regimen
same,PD50,"[1]; one dose (Q.D. on day one), s.c.",14.8 mg/kg
same,ED50 Three-Day Therapy,[1]; [5],44.4 mg/kg/therapy
same,ED50 Two-Day Therapy,[1]; [5],44.5 mg/kg/therapy
same,PD50,[1]; [6],10.1 mg/kg
same,PD50,"[1]; s.c., Q.D. [1 day]",14.8 mg/kg/regimen
same,PD50,"[2]; P.O. q.d., 1 day regimen",20.4 mg/kg/regimen
same,PD50,"[2]; P.O. q.d., 2 day regimen",27.6 mg/kg/regimen
same,PD50,"[2]; P.O. q.d., 3 day regimen",49.4 mg/kg/regimen
same,PD50,[3]; Q.D. [2 days],49.9 mg/kg/regimen
same,PD50,[3]; Q.D. [3 days],181.6 mg/kg/regimen
same,PD50,"[3]; s.c., Q.D. [1 day]",25.3 mg/kg/regimen
CC[C@H]1OC(=O)[C@H](C)[C@@H](O[C@H]2C[C@@](C)(OC)[C@@H](O)[C@H](C)O2)[C@H](C)[C@@H](O[C@@H]2O[C@H](C)C[C@H](N(C)C)[C@H]2O)[C@](C)(OC)C[C@@H](C)C(=O)[C@H](C)[C@@H](O)[C@]1(C)O [Clarithromycin],PD50,[4]; 1 day regimen,11.3 mg/kg/regimen
same,PD50,[4]; 2 day regimen,2.2 mg/kg/regimen
same,PD50,[4]; 3 day regimen,3.1 mg/kg/regimen
same,Mice Surviving/Total,"[1]; 0.52 mg/kg/day, Q.D. [3 days]",3/10
same,Mice Surviving/Total,"[1]; 0.78 mg/kg/day, Q.D. [2 days]",1/10
same,Mice Surviving/Total,"[1]; 1.56 mg/kg/day, Q.D. [1 day]",3/10
same,Mice Surviving/Total,"[1]; 2.08 mg/kg/day, Q.D. [3 days]",1/10
same,Mice Surviving/Total,"[1]; 3.12 mg/kg/day, Q.D. [2 days]",5/10
same,Mice Surviving/Total,"[1]; 6.25 mg/kg/day, Q.D. [1 day]",7/10
same,Mice Surviving/Total,"[1]; 8.3 mg/kg/day, Q.D. [3 days]",8/10
same,Mice Surviving/Total,"[1]; 25 mg/kg/day, Q.D. [1 day]",10/10
same,Mice Surviving/Total,"[1]; 33.3 mg/kg/day, Q.D. [3 days]",9/10
same,Mice Surviving/Total,"[1]; 50 mg/kg/day, Q.D. [2 days]",10/10
same,Mice Surviving/Total,"[1]; 100 mg/kg/day, Q.D. [1 day]",10/10
same,Oral PD50,[1]; Dosing Regimen 1 day,2.2 (0.9–4.2) mg/kg/day
same,Oral PD50,[1]; Dosing Regimen 2 days,23.7 (5.4–42) mg/kg/day
same,Oral PD50,[1]; Dosing Regimen 3 days,18.8 (7.2–30.3) mg/kg/day
same,PD50,[1]; Q.D. [2 days],23.7 mg/kg/regimen
same,Mice Surviving/Total,"[1]; […], Q.D. [2 days]",6/10
same,ED50 One-Day Therapy,[1]; [5],6.1 mg/kg/therapy
same,ED50 Three-Day Therapy,[1]; [5],23.1 mg/kg/therapy
same,ED50 Two-Day Therapy,[1]; [5],16.6 mg/kg/therapy
same,PD50,[1]; [6],1.7 mg/kg
same,PD50,"[1]; s.c., Q.D. [1 day]",2.2 mg/kg/regimen
same,MIC,E. faecalis 03A1085; read-out: MIC,3.12 µg/mL
same,MIC,"E. faecalis 03A1085; with serum, read-out: MIC w/serum",3.12 µg/mL
same,PD50,"[2]; P.O. q.d., 1 day regimen",>200 mg/kg/regimen
same,PD50,"[2]; P.O. q.d., 2 day regimen",>200 mg/kg/regimen
same,PD50,"[2]; P.O. q.d., 3 day regimen",>200 mg/kg/regimen
same,PD50,[2]; q.d. regimen regardless as to the duration of therapy,> 200 mg/kg/regimen
same,PD50,"[3]; s.c., Q.D. [1 day]",>200 mg/kg/regimen
